Measured values taken from article PMC8157854, “Radiosynthesis and Evaluation of Talazoparib and Its Derivatives as PARP-1-Targeting Agents” (Biomedicines, 2021).

Protein sequences, listed by entry. Tags and fused reporters are not part of them.
UniProt P09874, whole entry: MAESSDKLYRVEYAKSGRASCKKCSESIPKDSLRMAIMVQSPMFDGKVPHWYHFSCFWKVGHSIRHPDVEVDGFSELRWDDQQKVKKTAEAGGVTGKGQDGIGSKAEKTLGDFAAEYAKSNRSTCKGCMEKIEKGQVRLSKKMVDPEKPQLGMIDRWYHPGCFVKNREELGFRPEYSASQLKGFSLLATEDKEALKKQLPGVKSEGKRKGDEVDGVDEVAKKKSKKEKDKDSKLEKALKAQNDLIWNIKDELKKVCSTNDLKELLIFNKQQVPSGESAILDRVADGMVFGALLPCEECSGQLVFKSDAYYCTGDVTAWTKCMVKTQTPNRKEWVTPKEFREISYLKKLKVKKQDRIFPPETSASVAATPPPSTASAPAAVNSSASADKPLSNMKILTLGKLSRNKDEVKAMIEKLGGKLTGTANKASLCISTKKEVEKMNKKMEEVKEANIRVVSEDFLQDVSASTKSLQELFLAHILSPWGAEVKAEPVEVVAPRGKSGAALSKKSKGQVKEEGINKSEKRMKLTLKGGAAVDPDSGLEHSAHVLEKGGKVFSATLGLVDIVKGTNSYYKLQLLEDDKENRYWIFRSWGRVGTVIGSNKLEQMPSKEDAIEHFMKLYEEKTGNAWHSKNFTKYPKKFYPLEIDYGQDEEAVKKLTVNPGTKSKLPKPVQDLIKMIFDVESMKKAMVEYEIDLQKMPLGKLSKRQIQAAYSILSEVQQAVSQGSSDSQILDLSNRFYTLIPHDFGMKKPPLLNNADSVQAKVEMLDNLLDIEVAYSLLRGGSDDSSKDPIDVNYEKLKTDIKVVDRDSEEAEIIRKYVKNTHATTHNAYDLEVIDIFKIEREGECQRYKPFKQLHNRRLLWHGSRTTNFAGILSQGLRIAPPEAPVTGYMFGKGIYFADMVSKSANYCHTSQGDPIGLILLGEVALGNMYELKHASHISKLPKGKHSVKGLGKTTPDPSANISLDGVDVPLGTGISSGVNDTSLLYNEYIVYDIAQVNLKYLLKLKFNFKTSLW

Biological target: PARP-1 (Homo sapiens, UniProt P09874)
Assay: Competitive binding assay with [3H]WC-DZ in U251MG cells
Conditions: competitive binding vs [3H]WC-DZ in U251MG cells; Mean ± SEM, n = 3

pseudoHill coefficient n′H | SMILES
0.76 ± 0.13 | Cn1ncnc1[C@H]1c2n[nH]c(=O)c3cc(F)cc(c23)N[C@@H]1c1ccc(F)cc1 [3a″, (8S,9R)-5-Fluoro-8-(4-fluorophenyl)-9-(1-methyl-1H-1,2,4-triazol-5-yl)-2,7,8,9-tetrahydro-3H-pyrido[4,3,2-de]phthalazin-3-one]
1.00 ± 0.07 | Cn1ncnc1C1c2n[nH]c(=O)c3cc(F)cc(c23)NC1c1ccc(F)cc1 (centres unmarked) [Compound 3a]
